The source made the active and inactive calls. The calls are words filed in the database; no cut-off is given here.
Experiments:
[1] = molecular target: T1, Mitogen-activated protein kinase 8 (Homo sapiens, UniProt P45983); assay: Inhibition of JNK1 (unknown origin) at 1 uM by kinase profiling assay relative to control
[2] = molecular target: Vascular endothelial growth factor receptor 3 (Homo sapiens, UniProt P35916); assay: Inhibition of FLT4 (unknown origin) at 1 uM by kinase profiling assay relative to control
[3] = molecular target: T2, Serine/threonine-protein kinase D3 (Homo sapiens) (UniProt O94806); assay: Inhibition of PKD3 (unknown origin) at 1 uM by kinase profiling assay relative to control
T2 sequence (whole entry): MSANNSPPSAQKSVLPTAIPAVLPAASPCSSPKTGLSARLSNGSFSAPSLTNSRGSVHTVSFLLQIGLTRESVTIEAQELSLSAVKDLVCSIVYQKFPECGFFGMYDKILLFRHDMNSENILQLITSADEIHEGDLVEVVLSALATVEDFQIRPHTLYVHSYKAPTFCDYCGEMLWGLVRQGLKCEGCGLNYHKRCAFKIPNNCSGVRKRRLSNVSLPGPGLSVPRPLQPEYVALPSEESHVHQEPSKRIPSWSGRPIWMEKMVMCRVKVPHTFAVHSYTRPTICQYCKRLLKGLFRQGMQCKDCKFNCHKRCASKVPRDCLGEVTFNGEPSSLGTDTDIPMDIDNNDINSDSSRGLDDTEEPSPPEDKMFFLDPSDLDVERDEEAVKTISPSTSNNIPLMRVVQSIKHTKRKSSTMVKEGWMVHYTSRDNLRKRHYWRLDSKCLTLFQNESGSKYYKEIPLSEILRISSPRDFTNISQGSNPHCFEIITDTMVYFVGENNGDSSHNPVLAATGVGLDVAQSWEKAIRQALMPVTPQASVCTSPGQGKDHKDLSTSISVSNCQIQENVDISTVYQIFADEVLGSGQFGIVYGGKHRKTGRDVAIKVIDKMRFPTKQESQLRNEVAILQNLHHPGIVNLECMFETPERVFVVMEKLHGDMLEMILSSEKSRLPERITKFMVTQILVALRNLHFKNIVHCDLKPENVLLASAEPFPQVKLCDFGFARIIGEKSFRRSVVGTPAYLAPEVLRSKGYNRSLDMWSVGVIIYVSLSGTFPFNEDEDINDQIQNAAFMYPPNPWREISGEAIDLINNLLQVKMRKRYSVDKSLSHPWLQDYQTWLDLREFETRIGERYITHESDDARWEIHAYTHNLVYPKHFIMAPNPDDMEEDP

Sequences of proteins named here, by UniProt entry; tags and fusion partners are left off. A change or cut given only in a name is not applied to a line headed by its entry.
UniProt P45983: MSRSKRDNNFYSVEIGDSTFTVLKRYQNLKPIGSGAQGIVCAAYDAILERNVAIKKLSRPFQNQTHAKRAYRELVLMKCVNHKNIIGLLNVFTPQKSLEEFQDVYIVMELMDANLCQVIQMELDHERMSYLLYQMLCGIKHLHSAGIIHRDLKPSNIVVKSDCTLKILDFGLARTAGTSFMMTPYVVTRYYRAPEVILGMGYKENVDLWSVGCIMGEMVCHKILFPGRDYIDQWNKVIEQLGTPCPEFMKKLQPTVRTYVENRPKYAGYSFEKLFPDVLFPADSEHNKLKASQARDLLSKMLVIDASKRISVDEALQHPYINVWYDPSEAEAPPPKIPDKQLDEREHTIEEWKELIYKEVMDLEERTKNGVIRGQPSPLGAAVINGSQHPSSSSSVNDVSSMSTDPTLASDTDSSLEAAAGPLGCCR
UniProt P35916, whole entry: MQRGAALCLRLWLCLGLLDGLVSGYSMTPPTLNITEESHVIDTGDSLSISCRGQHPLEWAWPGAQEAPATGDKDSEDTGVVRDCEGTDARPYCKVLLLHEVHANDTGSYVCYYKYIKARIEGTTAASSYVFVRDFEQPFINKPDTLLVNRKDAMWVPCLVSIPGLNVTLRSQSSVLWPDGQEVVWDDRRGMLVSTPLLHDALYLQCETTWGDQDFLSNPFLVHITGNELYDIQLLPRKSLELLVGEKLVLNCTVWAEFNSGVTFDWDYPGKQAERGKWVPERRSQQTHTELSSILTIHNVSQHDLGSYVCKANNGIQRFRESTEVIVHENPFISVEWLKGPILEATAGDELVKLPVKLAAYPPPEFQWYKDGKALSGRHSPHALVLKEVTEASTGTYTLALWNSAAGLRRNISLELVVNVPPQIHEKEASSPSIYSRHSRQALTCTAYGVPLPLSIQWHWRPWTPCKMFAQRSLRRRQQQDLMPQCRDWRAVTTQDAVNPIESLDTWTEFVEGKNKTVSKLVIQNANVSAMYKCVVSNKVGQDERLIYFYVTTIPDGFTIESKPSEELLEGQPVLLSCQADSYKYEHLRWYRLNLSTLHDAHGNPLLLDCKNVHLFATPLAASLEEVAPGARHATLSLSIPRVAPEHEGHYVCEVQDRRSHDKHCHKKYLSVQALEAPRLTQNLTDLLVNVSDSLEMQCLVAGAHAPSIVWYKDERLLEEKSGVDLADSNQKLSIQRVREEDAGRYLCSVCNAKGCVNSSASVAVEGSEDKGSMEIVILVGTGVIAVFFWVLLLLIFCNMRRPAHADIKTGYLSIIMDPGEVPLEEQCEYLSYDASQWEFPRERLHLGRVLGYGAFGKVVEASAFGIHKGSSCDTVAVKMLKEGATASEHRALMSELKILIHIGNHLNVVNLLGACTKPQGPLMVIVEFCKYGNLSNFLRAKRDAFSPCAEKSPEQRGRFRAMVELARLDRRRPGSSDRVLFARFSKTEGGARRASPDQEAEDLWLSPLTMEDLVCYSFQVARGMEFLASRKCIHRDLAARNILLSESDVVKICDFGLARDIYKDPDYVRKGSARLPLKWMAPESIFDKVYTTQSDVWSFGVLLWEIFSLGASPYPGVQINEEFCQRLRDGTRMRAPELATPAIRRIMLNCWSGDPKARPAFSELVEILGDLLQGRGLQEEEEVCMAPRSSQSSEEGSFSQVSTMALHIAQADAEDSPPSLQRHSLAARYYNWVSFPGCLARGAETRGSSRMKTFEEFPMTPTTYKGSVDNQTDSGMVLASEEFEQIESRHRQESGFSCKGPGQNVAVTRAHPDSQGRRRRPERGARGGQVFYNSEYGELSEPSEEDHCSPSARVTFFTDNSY
UniProt Q9UKE5: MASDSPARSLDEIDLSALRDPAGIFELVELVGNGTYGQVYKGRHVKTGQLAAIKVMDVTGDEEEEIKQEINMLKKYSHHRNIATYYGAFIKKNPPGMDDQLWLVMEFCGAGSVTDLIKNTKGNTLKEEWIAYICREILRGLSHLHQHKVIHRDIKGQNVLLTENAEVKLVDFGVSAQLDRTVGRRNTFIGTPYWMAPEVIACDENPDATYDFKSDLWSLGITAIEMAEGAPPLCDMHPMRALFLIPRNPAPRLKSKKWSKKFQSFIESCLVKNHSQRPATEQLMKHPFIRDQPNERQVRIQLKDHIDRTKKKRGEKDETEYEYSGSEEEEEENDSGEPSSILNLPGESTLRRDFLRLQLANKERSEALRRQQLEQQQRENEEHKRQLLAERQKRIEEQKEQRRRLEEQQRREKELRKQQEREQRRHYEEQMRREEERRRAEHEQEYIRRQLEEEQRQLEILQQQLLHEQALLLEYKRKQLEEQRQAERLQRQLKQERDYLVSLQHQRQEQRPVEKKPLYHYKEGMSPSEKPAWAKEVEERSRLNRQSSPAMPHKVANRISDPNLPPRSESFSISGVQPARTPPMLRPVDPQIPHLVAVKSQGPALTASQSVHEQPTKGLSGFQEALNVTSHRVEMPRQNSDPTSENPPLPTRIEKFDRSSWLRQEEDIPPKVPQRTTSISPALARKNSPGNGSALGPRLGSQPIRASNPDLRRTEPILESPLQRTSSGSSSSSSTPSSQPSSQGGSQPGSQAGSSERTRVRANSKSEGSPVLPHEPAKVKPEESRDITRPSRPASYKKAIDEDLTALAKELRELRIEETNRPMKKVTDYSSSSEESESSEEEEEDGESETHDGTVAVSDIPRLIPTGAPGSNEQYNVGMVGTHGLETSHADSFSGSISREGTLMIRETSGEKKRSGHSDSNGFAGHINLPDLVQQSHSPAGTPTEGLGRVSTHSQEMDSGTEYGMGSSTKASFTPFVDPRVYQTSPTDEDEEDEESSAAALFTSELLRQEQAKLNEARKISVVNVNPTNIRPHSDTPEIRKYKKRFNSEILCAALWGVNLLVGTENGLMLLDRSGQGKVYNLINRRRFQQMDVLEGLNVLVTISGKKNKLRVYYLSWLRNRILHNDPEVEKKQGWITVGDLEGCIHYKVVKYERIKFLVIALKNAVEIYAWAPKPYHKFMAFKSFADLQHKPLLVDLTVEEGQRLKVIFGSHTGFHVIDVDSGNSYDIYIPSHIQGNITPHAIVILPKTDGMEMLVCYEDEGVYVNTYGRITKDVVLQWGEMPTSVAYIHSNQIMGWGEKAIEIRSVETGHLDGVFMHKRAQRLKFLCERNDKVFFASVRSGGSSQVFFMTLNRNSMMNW
UniProt Q8IVW4: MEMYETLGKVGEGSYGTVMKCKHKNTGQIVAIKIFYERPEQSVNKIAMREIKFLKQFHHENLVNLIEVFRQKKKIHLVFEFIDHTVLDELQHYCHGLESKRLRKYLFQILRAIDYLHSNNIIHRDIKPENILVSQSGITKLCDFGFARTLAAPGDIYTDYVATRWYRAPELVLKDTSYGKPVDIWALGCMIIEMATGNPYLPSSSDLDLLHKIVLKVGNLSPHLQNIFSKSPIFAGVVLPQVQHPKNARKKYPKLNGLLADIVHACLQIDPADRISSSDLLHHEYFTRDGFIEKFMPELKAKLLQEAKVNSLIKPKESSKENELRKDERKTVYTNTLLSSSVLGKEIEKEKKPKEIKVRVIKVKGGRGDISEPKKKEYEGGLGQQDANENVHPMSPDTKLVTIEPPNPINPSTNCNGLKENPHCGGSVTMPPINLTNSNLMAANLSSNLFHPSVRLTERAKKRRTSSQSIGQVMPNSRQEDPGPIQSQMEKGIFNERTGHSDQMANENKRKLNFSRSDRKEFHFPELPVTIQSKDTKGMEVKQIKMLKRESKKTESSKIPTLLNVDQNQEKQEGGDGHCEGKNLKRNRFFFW

[4] = molecular target: T3, Mitogen-activated protein kinase 9 (Homo sapiens, UniProt P45984); assay: Inhibition of JNK2 (unknown origin) at 1 uM by kinase profiling assay relative to control
[5] = molecular target: TRAF2 and NCK-interacting protein kinase (Homo sapiens, UniProt Q9UKE5); assay: Inhibition of TNIK (unknown origin) at 1 uM by kinase profiling assay relative to control
[6] = molecular target: Cyclin-dependent kinase-like 3 (Homo sapiens, UniProt Q8IVW4); assay: Inhibition of CDKL3 (unknown origin) at 1 uM by kinase profiling assay relative to control
[7] = molecular target: T3, Mitogen-activated protein kinase 9; assay: Stabilization of JNK2 in human SH-SY5Y cells at 30 uM incubated for 6 hrs by CETSA; type: cell-based
[8] = molecular target: T1, Mitogen-activated protein kinase 8; assay: Stabilization of JNK1 in human SH-SY5Y cells at 30 uM incubated for 6 hrs by CETSA; type: cell-based

inhibition [1]: 16.1% | inhibition [2]: 74.9% | inhibition [3]: 63.6% | inhibition [4]: 21.3% | inhibition [5]: 77.1% | inhibition [6]: 61.2% | Activity [7]: inactive | Activity [8]: inactive
SMILES: O=C(c1cccc(CNc2n[nH]c3cccc(Cl)c23)c1)N1CCN(C(=O)c2ccc(Cl)cc2Cl)CC1
